Hits are enriched below; roughly 1.5% of the tested compounds scored in any of these assays.
Yeast UUG start: alters start codon recognition fidelity in yeast; AID 602363; activity score, % at 18.7 µM; 350,000 tested, 0.13% active; S. cerevisiae UUG-firefly luciferase reporter, luminescence/redox ratio;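 active means replicate mean at a twofold rise or more, about +100% in these data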;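 further: firefly luciferase made from a UUG start codon reports start codon fidelity; reporter light over untreated wells divided by growth signal over untreated wells; some hits fall short of that in this replicate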
INS-1E GSIS act: GLuc luminescence reporter in INS-1E cells, primary screen for activators of glucose-dependent secretion of insulin. INS-1E GLuc reporter insulin secretion, 2-3 h. activation, % at 16.6 µM. 370,000 tested, 0.61% active;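 active = lowest replicate activation of at least 40%, so every replicate reaches that level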;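 also: 0% = median of neutral control wells and 100% = median of IBMX positive control wells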
PglD DTNB: C. jejuni PglD acetyltransferase inhibitors, primary screen, biochemical, DTNB colorimetric, single point | UDP-N-acetylbacillosamine N-acetyltransferase PglD (Campylobacter jejuni) | purified PglD enzyme, DTNB colorimetric CoA detection | inhibition, % at 12.5 µM | 360,000 tested, 0.098% active | AID 602405, 2012; in the data active = inhibition above about 16%, passing the limit was not always enough
RAD54 inh: inhibitors of human RAD54 branch migration, primary screen, biochemical, fluorescence, single point | 360,000 tested, 0.14% active | inhibition, % at 10.4 µM | RAD54 Holliday junction branch migration, FAM/BHQ fluorescence | AID 602329, 2012;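 active = mean normalized replicate activity at least 40 and at least half of replicates scoring 40 or more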;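 also: 0% = median of neutral control wells and 100% = median of positive control wells; inhibitors cause a drop in the FAM fluorescence signal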
RAD52 inh: RAD52 DNA annealing inhibitors, primary screen, biochemical, FRET, single point, set 2. recombinant RAD52 DNA annealing, FRET fluorescence. 360,000 tested, 0.46% active. inhibition, % at 18.7 µM;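 active = every replicate showing at least 50% inhibition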
Casp6 inh: human caspase-6 inhibitors, primary screen, biochemical, VEID-R110 fluorescence, single point, set 2; purified caspase-6, Z-VEID-R110 cleavage fluorescence; inhibition, % at 12.5 µM; 350,000 tested, 0.53% active; P55212;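 active = mean inhibition across replicates at least about 35%, with every replicate also reaching that limit, limit read from the data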;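 also: 0% = median of neutral control wells and 100% = no fluorescence left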
Starred values were filed as active, the others as inactive; x = no result; ! = a repeat was not active.

1	O=S(=O)(c1ccccc1)N1C[C@@H]2N[C@H](C1)C2c1ccc(-c2ccccc2)cc1 (some centres not stated)
2	Cc1ccc(-c2ccc(C3[C@@H]4CN(S(=O)(=O)c5ccccc5)C[C@H]3N4)cc2)cc1 (some centres not stated)
3	CCSc1nnc(NC(=O)CSc2nnc(Cc3cccn3C)n2-c2ccc(C)cc2)s1
4	CSc1ccccc1NC(=O)CN(C)C(=O)/C=C/c1ccccc1
5	C[C@@H]1CN([C@H](C)CO)C(=O)c2cc(NS(=O)(=O)c3cccs3)ccc2O[C@@H]1CN(C)S(C)(=O)=O

| Compound | 1 | 2 | 3 | 4 | 5 |
| --- | --- | --- | --- | --- | --- |
| Yeast UUG start | x | x | -15 | -6 | -11 |
| INS-1E GSIS act | -9 | 44 | 20 | 7 | 8 |
| PglD DTNB | x | x | 0 | 7 | -3 |
| RAD54 inh | x | x | -2 | 2 | 4 |
| RAD52 inh | 73*! | 98*! | -60 | -1 | -2 |
| Casp6 inh | -2 | -3 | -3 | 36* | -2 |

6	CCOc1ccc(NC(=O)COc2ccc(N3CC(C(N)=O)CC3=O)cc2)cc1 (configuration not stated)
7	CNC(=O)C1CC(=O)N(c2ccc(OCC(=O)Nc3ccccc3)cc2)C1 (configuration not stated)
8	COc1ccc(-c2nn(-c3ccccc3)cc2/C=C/C(=O)N2CCOCC2)cc1OC
9	COc1cc2nc(N3CCN(C(=O)OCc4ccccc4)[C@H](C(=O)NC(C)(C)C)C3)nc(N)c2cc1OC
10	COc1ccc(-c2ccc(C3[C@H]4CNC[C@@H]3N4Cc3cc(OC)cc(OC)c3)cc2)cc1 (some centres not stated)

| Compound | 6 | 7 | 8 | 9 | 10 |
| --- | --- | --- | --- | --- | --- |
| Yeast UUG start | -31 | -30 | x | -23 | x |
| INS-1E GSIS act | -4 | 55* | -7 | x | -22 |
| PglD DTNB | -4 | -2 | x | 3 | x |
| RAD54 inh | 5 | 11 | x | -13 | x |
| RAD52 inh | 7 | -16 | -6 | 4 | 42 |
| Casp6 inh | 4 | 8 | 4 | 3 | 1 |

Compounds listed so far that contain four or more nitrogen atoms:
3	CCSc1nnc(NC(=O)CSc2nnc(Cc3cccn3C)n2-c2ccc(C)cc2)s1
9	COc1cc2nc(N3CCN(C(=O)OCc4ccccc4)[C@H](C(=O)NC(C)(C)C)C3)nc(N)c2cc1OC

| Compound | 3 | 9 |
| --- | --- | --- |
| Yeast UUG start | -15 | -23 |
| INS-1E GSIS act | 20 | x |
| PglD DTNB | 0 | 3 |
| RAD54 inh | -2 | -13 |
| RAD52 inh | -60 | 4 |
| Casp6 inh | -3 | 3 |

Additional compounds follow:
11	Fc1cccc(CN2[C@@H]3CNC[C@H]2C3c2ccc(-c3cccc(F)c3)cc2)c1 (some centres not stated)
12	Fc1ccc(F)c(CN2[C@@H]3CNC[C@H]2C3c2ccc(-c3ccncc3)cc2)c1 (some centres not stated)
13	Fc1ccc(F)c(CN2[C@@H]3CNC[C@H]2C3c2ccc(-c3ccccc3)cc2)c1 (some centres not stated)
14	COc1cc(CN2[C@@H]3CNC[C@H]2C3c2ccc(-c3cccc(C)c3)cc2)cc(OC)c1 (some centres not stated)
15	CCCC#Cc1cnc2c(c1)C(=O)N([C@H](C)CO)C[C@H](C)[C@H](CN(C)Cc1ccc(F)cc1)O2

| Compound | 11 | 12 | 13 | 14 | 15 |
| --- | --- | --- | --- | --- | --- |
| Yeast UUG start | x | x | x | x | -8 |
| INS-1E GSIS act | -4 | 0 | -11 | -13 | -19 |
| PglD DTNB | x | x | x | x | 1 |
| RAD54 inh | x | x | x | x | -2 |
| RAD52 inh | 51*! | 81*! | 18 | 59* | -3 |
| Casp6 inh | 11 | 1 | -4 | x | -2 |

16	CCS(=O)(=O)n1nc(-c2ccc(Cl)cc2)nc1N
17	CCOC(=O)C1=C(C)NC(C)=C(C(=O)OCC)C1C(=O)OCC(=O)NC(C)c1ccccc1 (configuration not stated)
18	CC1=NN(c2ccc(C(=O)O)cc2)C(=O)/C1=C\c1ccc(OC(=O)c2cccs2)cc1
19	CCOc1cc(/C=C2\C(=O)N(c3ccc(C(N)=O)cc3)N=C2C)ccc1OC(=O)c1cccs1
20	Cc1ccc(/C=C2\SC(=S)N(CCC(=O)NNC(=O)c3cccnc3)C2=O)cc1

| Compound | 16 | 17 | 18 | 19 | 20 |
| --- | --- | --- | --- | --- | --- |
| Yeast UUG start | 0 | -5 | x | -1 | -20 |
| INS-1E GSIS act | 15 | -17 | -18 | x | 26 |
| PglD DTNB | -2 | 2 | x | 0 | 4 |
| RAD54 inh | 6 | -8 | x | -17 | -8 |
| RAD52 inh | -15 | -12 | 4 | x | x |
| Casp6 inh | -1 | 46* | 52* | x | x |

21	COc1ccccc1CN(C)C(=O)CN1CCN(CC(=O)Nc2ccccc2Cl)CC1
22	COc1ccccc1NC(=O)CN1CCN(CC(=O)Nc2ccccc2Cl)CC1
23	O=C(NC(=S)NNS(=O)(=O)c1ccccc1)c1ccccc1[N+](=O)[O-]
24	COC(=O)C1=COC(OC2OC(CO)C(O)C(O)C2O)C2C(C)CC(=O)C12 (configuration not stated)

| Compound | 21 | 22 | 23 | 24 |
| --- | --- | --- | --- | --- |
| Yeast UUG start | -5 | -3 | x | 0 |
| INS-1E GSIS act | 0 | -13 | -2 | 0 |
| PglD DTNB | 2 | -1 | x | -4 |
| RAD54 inh | -1 | 12 | x | 0 |
| RAD52 inh | -16 | 1 | -11 | -10 |
| Casp6 inh | 36* | -2 | 52* | 35* |

From PubChem
